Literature values as cited in patent US20230158100A1, “TREATMENT OF PANX1 ASSOCIATES DISEASES” (NURITAS LIMITED, priority 2020, published 2023).

Settings: Werle and Bernkop-Schnürch 2006; cited from earlier work

Substance: PEG(2, 40 K) conjugate of INF-alpha-2b: A PEG(2, 40 K) conjugate of INF-alpha-2b
- prolonged plasma half life time compared to the native protein: 330 fold
